The values that follow come from ChEMBL document CHEMBL4376894 (J Med Chem, 2020).

Protein sequences, listed by entry. Tags and fused reporters are not part of them. Lines headed by an entry give the natural chain unless they say otherwise; changes in a name come on top.
UniProt P35372, whole entry: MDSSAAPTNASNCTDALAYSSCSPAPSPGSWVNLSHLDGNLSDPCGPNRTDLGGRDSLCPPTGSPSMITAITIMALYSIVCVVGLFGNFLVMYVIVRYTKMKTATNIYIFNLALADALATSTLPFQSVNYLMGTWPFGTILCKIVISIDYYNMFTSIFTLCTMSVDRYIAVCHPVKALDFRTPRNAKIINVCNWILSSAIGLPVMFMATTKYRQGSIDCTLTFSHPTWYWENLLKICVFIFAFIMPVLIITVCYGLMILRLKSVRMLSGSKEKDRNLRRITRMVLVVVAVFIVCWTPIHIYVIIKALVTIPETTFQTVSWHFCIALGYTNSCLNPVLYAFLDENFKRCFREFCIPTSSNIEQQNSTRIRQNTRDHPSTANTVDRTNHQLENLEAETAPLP
UniProt P41145: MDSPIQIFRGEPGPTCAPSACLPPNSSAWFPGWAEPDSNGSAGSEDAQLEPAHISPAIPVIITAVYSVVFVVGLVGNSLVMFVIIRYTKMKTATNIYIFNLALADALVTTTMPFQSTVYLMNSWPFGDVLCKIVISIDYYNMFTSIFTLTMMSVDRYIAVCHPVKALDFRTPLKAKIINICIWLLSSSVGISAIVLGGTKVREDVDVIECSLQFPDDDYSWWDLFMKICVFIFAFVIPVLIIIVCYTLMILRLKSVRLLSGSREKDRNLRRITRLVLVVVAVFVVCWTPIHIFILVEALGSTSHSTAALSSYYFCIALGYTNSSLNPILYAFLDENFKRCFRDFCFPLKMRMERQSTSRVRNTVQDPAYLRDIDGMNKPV

Assay [1] addresses Mu-type opioid receptor (Homo sapiens, UniProt P35372). The assay can be described thus: biochemical. It is filed as functional, cell-based, CHO.
The target of assay [2] is Kappa-type opioid receptor (Homo sapiens, UniProt P41145). Nature of the assay: biochemical. The class given is functional, cell-based, CHO.

Bounds are passed on as bounds.

For the molecule `CCOc1ccc(CN(C)Cc2ccccc2)cc1CNC(=O)[C@@H](N)Cc1c(C)cc(O)cc1C.O=C(O)C(F)(F)F`, the EC50 in assay [1] (read-out: EC50) was 33.9 nM; in assay [2] (cho) it was “Not Active”.

For `CCOc1ccc(CN2CCCC2)cc1CNC(=O)[C@@H](N)Cc1c(C)cc(O)cc1C.O=C(O)C(F)(F)F`, the EC50 in assay [1] (read-out: EC50) was 168 nM; in assay [2] (read-out: EC50), more than 6 µM.

As to `CCOc1ccc(CN2CCOCC2)cc1CNC(=O)[C@@H](N)Cc1c(C)cc(O)cc1C.O=C(O)C(F)(F)F`, the EC50 was 1020 nM in assay [1] (read-out: EC50) and “Not Active” in assay [2] (cho).

Regarding `CCOc1ccc(C(=O)N2CCCC2)cc1CNC(=O)[C@@H](N)Cc1c(C)cc(O)cc1C.O=C(O)C(F)(F)F`, the EC50 result in assay [1] (cho) and in assay [2] (cho) was “Not Active” in each case.

As for `CCOc1ccc(CN2CCCCC2)cc1CNC(=O)[C@@H](N)Cc1c(C)cc(O)cc1C.O=C(O)C(F)(F)F`, the EC50 in assay [1] (read-out: EC50) was 585 nM; in assay [2] (cho) it was “Not Active”.

In the case of `CCOc1ccc(CNCc2ccccc2)cc1CNC(=O)[C@@H](N)Cc1c(C)cc(O)cc1C.O=C(O)C(F)(F)F`, the EC50 in assay [1] (read-out: EC50) is 16.7 nM; in assay [2] (read-out: EC50) it was more than 1 µM.

On to `CCOc1ccc(CN2CCc3ccccc3C2)cc1CNC(=O)[C@@H](N)Cc1c(C)cc(O)cc1C.O=C(O)C(F)(F)F`, for which the EC50 is 1.9 nM in assay [1] (read-out: EC50) and “Not Active” in assay [2] (cho).

On to `CCOc1ccc(CN2CC3CC3C2)cc1CNC(=O)[C@@H](N)Cc1c(C)cc(O)cc1C` (stereo not given in full), for which the results for the EC50 in assay [1] (read-out: EC50) and in assay [2] (read-out: EC50) were 990 nM and more than 10 µM, respectively.

As to `CCOc1ccc(C(=O)N2Cc3ccccc3C2)cc1CNC(=O)[C@@H](N)Cc1c(C)cc(O)cc1C.O=C(O)C(F)(F)F`, the concentration for a half-maximal effect (EC50) is 15 nM in assay [1] (read-out: EC50) and “Not Active” in assay [2] (cho).

In the case of `CCOc1ccc(CN2Cc3ccccc3C2)cc1CNC(=O)[C@@H](N)Cc1c(C)cc(O)cc1C.O=C(O)C(F)(F)F`, the EC50 is 8.4 nM in assay [1] (read-out: EC50) and “Not Active” in assay [2] (cho).

By EC50 is commonly meant the concentration that produces a half-maximal response.
